Measurements from PubChem BioAssay AID651610 (Broad Institute, 2012).
This is a selection; strong and weak results do not stand in their true shares. Some of these compounds have results that are not shown, active ones among them. Activity calls are given as the source filed them.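 How the source made its calls: active means mean replicate inhibition score of at least 50 and every replicate individually at or above 50; inconclusive means only one of the two criteria met; inactive means mean below 50 and not all replicates reaching 50.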

experiment: inhibitors of HIV-1 Env-driven cell-cell fusion, primary screen, HeLa-JRFL effector, CEM21 target cells, luciferase (AID 651610); settings: at 12.3 µM, stronger effect = higher value;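 further: 0% = plate neutral controls and 100% = maraviroc near 300 nM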

Compound | inhibition
O=C(NCC1(N2CCCCC2)CCCCC1)c1cccc(Cl)c1 | inactive: -4.44%
COc1cccc(C(=O)NCC2(N3CCCCC3)CCCCC2)c1 | inactive: 6.81%
COc1ccc(Cl)cc1C(=O)NCC1(N(C)C)CCCCC1 | inactive: -9.52%
COc1cc(C(=O)NCC2(N(C)C)CCCCC2)c([N+](=O)[O-])cc1OC | inactive: -18.8%
CN(C)C1(CNC(=O)c2ccc(Br)cc2)CCCCC1 | inactive: 20%
CC(C)Oc1ccc(C(=O)NCC2(N(C)C)CCCCC2)cc1 | inactive: 2.39%
COc1ccc(Br)c(C(=O)NCC2(N3CCCCC3)CCCCC2)c1 | inactive: 17.4%
C=C(C)C#CC(O)(C(=O)OC1CCN(C)CC1)c1ccccc1 (configuration not stated) | inactive: -18.6%
Cc1ccc(C(=O)NCC2(N3CCCCC3)CCCCC2)cc1 | inactive: 7.51%
CCN(CC)CC(C)C(C)OC(=O)C(O)(c1ccccc1)c1ccccc1 (configuration not stated) | inactive: 12.9%
COc1cc(SC)ccc1C(=O)NCC1(N(C)C)CCCCC1 | inactive: 17.2%
CN1[C@@H]2CC[C@H]1CC(OC(=O)C(O)(c1ccccc1)c1ccccc1)C2 (some centres not stated) | inactive: -9.65%
O=C(NCC1(N2CCCCC2)CCCCC1)c1cc([N+](=O)[O-])ccc1Cl | inactive: -7.74%
CCN1CCCC(OC(=O)C2(O)c3ccccc3C=Cc3ccccc32)C1 (configuration not stated) | inactive: -14.6%
Cc1cc(C(=O)NCC2(N3CCCCC3)CCCCC2)ccc1[N+](=O)[O-] | inactive: -3.88%
O=C(NCC1(N2CCCCC2)CCCCC1)c1cccc(Br)c1 | inactive: 7.96%
COc1ccc(C(=O)NCC2(N(C)C)CCCCC2)cc1 | inactive: -1.38%
C=CCN1CCN(CCOC(=O)C(O)(c2ccccc2)c2ccccc2)CC1 | inactive: 17.4%
O=C(NCC1(N2CCCCC2)CCCCC1)c1cc(F)c(F)cc1Cl | inactive: 16.5%
Cc1ccccc1C(=O)NCC1(N2CCCCC2)CCCCC1 | inactive: -73.4%
CN(C)c1ccc(C(=O)NCC2(N(C)C)CCCCC2)cc1 | inactive: -3.09%
CN(C)C1CCCC1OC(=O)C(O)(c1ccccc1)c1ccccc1 (configuration not stated) | inactive: -15.4%
